## Cyclic peptide permeability, from CycPeptMPDB

Collected by the curators of CycPeptMPDB (Li et al. 2023) from Furukawa et al. 2016, doi:10.1021/acs.jmedchem.6b01246.

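Lipid, pH, incubation time, direction and concentration are not recorded in the data file. The list need not hold all peptides of the study. Entries at the database's floor value (log10 P of -10) are not listed.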

PAMPA is the parallel artificial membrane permeability assay, which has no cells and reads passive diffusion.
Values are log10 P with P in cm/s, so -5 is more permeable than -7.

CCCC[C@@H]1NC(=O)[C@H](CC(C)C)N(C)C(=O)CN(CCc2cccnc2)C(=O)[C@H](Cc2ccccc2)NC(=O)CN(Cc2ccccc2Cn2cccn2)C(=O)[C@H]2CCCN2C1=O has PAMPA -5.69 (log10 cm/s).
CCCCCN1CC(=O)N(C)[C@@H](CC(C)C)C(=O)N[C@@H](CCCC)C(=O)N2CCC[C@@H]2C(=O)N(CC(C)C)CC(=O)N[C@@H](C)C1=O has PAMPA -4.90 (log10 cm/s).
CCCC[C@@H]1NC(=O)[C@H](CC(C)C)N(C)C(=O)CN(CC2CCCCC2)C(=O)[C@H](Cc2ccc3ccccc3c2)NC(=O)CN(CCC)C(=O)[C@H]2CCCN2C1=O has PAMPA -7.24 (log10 cm/s).
CCCC[C@@H]1NC(=O)[C@H](CC(C)C)N(C)C(=O)CN(CC2CCOCC2)C(=O)[C@H](Cc2ccc3ccccc3c2)NC(=O)CN(CCC)C(=O)[C@H]2CCCN2C1=O has PAMPA -5.37 (log10 cm/s).
CCCC[C@@H]1NC(=O)[C@H](CC(C)C)N(C)C(=O)CN(Cc2ccccc2)C(=O)[C@H](C)NC(=O)CN(Cc2ccc(Cl)cc2)C(=O)[C@H]2CCCN2C1=O has PAMPA -5.48 (log10 cm/s).
CCCC[C@@H]1NC(=O)[C@H](CC(C)C)N(C)C(=O)CN(CC2CCOCC2)C(=O)[C@H](Cc2ccccc2)NC(=O)CN(Cc2cc(CC(C)C)on2)C(=O)[C@H]2CCCN2C1=O has PAMPA -5.45 (log10 cm/s).
CCCC[C@@H]1NC(=O)[C@H](CC(C)C)N(C)C(=O)CN(CCc2cccnc2)C(=O)[C@H](Cc2ccc3ccccc3c2)NC(=O)CN(CCN2CCOCC2)C(=O)[C@H]2CCCN2C1=O has PAMPA -6.02 (log10 cm/s).
CCCC[C@@H]1NC(=O)[C@H](CC(C)C)N(C)C(=O)CN(CCCc2cnn(C)c2)C(=O)[C@H](C)NC(=O)CN(Cc2cc(CC(C)C)on2)C(=O)[C@H]2CCCN2C1=O has PAMPA -5.79 (log10 cm/s).
CCCCCN1CC(=O)N(C)[C@@H](CC(C)C)C(=O)N[C@@H](CCCC)C(=O)N2CCC[C@@H]2C(=O)N(CCCOC(C)C)CC(=O)N[C@@H](Cc2ccc3ccccc3c2)C1=O has PAMPA -7.19 (log10 cm/s).
CCCC[C@@H]1NC(=O)[C@H](CC(C)C)N(C)C(=O)CN(CCCc2cnn(C)c2)C(=O)[C@H](Cc2ccc3ccccc3c2)NC(=O)CN(Cc2ccc3c(c2)OCO3)C(=O)[C@H]2CCCN2C1=O has PAMPA -7.60 (log10 cm/s).
CCCC[C@@H]1NC(=O)[C@H](CC(C)C)N(C)C(=O)CN(CCCN2CCCC2=O)C(=O)[C@H](Cc2ccccc2)NC(=O)CN(CCC)C(=O)[C@H]2CCCN2C1=O has PAMPA -6.24 (log10 cm/s).
CCCC[C@@H]1NC(=O)[C@H](CC(C)C)N(C)C(=O)CN(CCCc2ccccc2)C(=O)[C@H](CC(C)C)NC(=O)CN(Cc2ccc(Cl)cc2)C(=O)[C@H]2CCCN2C1=O has PAMPA -7.97 (log10 cm/s).
CCCC[C@@H]1NC(=O)[C@H](CC(C)C)N(C)C(=O)CN(CCCc2ccccc2)C(=O)[C@H](Cc2ccccc2)NC(=O)CN(CCCCc2ccccc2)C(=O)[C@H]2CCCN2C1=O has PAMPA -8.51 (log10 cm/s).
CCCC[C@@H]1NC(=O)[C@H](CC(C)C)N(C)C(=O)CN(CCCN2CCCC2=O)C(=O)[C@H](Cc2ccccc2)NC(=O)CN(CCN2CCOCC2)C(=O)[C@H]2CCCN2C1=O has PAMPA -7.35 (log10 cm/s).
CCCC[C@@H]1NC(=O)[C@H](CC(C)C)N(C)C(=O)CN(CCCc2ccccc2)C(=O)[C@H](CC(C)C)NC(=O)CN(Cc2cc(CC(C)C)on2)C(=O)[C@H]2CCCN2C1=O has PAMPA -6.97 (log10 cm/s).